{
  "source": "patent US20020086061A1",
  "about": "(priority 1999, published 2002)",
  "settings": "500 ml phosphate buffer, Type II, paddle",
  "description": "The media used was a 500 ml phosphate buffer, Type II, and dissolution was assisted by using a paddle.",
  "data": [
    {"smiles": "CCOC(=O)C1=C(C)NC(C)=C(C(=O)OC)C1c1cccc(Cl)c1Cl", "note": "(racemic) [felodipine]", "values": [
      {"measurement": "intrinsic dissolution rate", "result": 0.00086, "unit": "mg min^−1 cm-^−2"}
    ]}
  ]
}
